In patent US20020187514A1 (priority 1999, published 2002):

Target: Galanin
Experiment: Galanin; [I125]Galanin
Type: binding
Conditions: reference compound, QA/QC; read-out: Ref Kj

Substance: Galanin (Porcine)
- pKi: 9.71

pKi: −log10 of the molar value.
